The values below come from publication PMC9082524, “Aromatic heterocycle galectin-1 interactions for selective single-digit nM affinity ligands” (RSC Advances, 2018).

By UniProt entry, the sequences of proteins in these tests, tags left out.
UniProt P17931, whole entry: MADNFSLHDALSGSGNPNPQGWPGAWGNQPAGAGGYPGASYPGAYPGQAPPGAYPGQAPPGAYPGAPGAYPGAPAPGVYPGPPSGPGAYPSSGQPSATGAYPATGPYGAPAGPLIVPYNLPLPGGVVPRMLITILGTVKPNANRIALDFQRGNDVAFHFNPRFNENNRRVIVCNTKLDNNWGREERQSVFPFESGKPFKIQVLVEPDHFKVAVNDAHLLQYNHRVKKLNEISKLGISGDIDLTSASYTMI

As usually defined, the Kd is the concentration at which binding is half-saturated. Read a high Kd as weaker binding.

In the experiment the target is galectin-3 (Homo sapiens, UniProt P17931). Briefly: Competitive fluorescence polarization, galectin-3 (performed as described in ref 13). For orientation: In fluorescence polarisation assays a small probe gives low polarisation when free and higher when bound to something large.

Turning to `Cc1ccc(S[C@@H]2O[C@H](CO)[C@H](O)[C@H](n3cc(-c4cccs4)nn3)[C@H]2O)cc1` [compound 6, p-Methylphenyl 3-deoxy-3-[4-(thien-2-yl)-1H-1,2,3-triazol-1-yl]-1-thio-β-D-galactopyranoside], the Kd was 180 ± 10 µM.
For the compound `Cc1ccc(S[C@@H]2O[C@H](CO)[C@H](O)[C@H](n3cc(-c4ccsc4)nn3)[C@H]2O)cc1` [compound 7, p-Methylphenyl 3-deoxy-3-[4-(thien-3-yl)-1H-1,2,3-triazol-1-yl]-1-thio-β-D-galactopyranoside], the affinity, expressed as Kd, was 200 ± 10 µM.
